Experiment [1] concerns the target Delta-type opioid receptor (Homo sapiens, UniProt P41143). The experiment can be described thus: Binding affinity at delta opioid receptor (unknown origin).
Experiment [2] concerns the target Mu-type opioid receptor (Homo sapiens, UniProt P35372). The experiment can be described thus: Binding affinity at mu opioid receptor (unknown origin).

Chains of the proteins cited; added tags and fusions are not shown.
UniProt P41143, whole entry: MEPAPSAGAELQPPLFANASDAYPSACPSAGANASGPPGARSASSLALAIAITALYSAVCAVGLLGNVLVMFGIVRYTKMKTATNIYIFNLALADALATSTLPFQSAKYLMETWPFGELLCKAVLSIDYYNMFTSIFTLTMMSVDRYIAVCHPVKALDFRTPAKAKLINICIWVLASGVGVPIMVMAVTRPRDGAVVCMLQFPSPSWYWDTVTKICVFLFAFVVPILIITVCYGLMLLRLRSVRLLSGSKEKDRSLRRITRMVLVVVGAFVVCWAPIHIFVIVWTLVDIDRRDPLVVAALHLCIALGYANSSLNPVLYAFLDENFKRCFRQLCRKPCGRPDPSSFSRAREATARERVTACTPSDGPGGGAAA
UniProt P35372, whole entry: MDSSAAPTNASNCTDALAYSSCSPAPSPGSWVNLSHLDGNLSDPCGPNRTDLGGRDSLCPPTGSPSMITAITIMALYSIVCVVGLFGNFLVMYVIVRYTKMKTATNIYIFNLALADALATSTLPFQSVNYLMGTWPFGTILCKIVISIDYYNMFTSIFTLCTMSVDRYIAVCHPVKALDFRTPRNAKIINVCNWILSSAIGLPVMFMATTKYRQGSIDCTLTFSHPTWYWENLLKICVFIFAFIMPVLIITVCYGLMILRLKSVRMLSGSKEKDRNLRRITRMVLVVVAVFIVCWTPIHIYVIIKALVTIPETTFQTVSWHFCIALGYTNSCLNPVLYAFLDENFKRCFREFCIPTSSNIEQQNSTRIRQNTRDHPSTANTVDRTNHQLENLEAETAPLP

One may read the Ki as a dissociation constant, usually derived from enzyme kinetics or from competition with a known ligand. High values mean a looser hold on the target, low ones a stronger hold on the target.

`Cc1cc(O)cc(C)c1C[C@H](N)C(=O)N[C@H](CCCNC(=N)N)C(=O)N[C@@H](Cc1ccccc1)C(=O)N[C@@H](CCCCN)C(N)=O` came in with a Ki in experiment [1] of 2.1 µM.

In experiment [2], `Oc1ccc2c(c1)[C@@]13CCCC[C@H]1[C@@H](C2)N(CC1CCC1)CC3` [BUTORPHAN] yielded a Ki of 0.00012 µM.

For the origin of these results see ChEMBL document CHEMBL3758122, “Multitarget opioid ligands in pain relief: New players in an old game” (Eur J Med Chem, 2016).
